From PubChem BioAssay
In the library only some 16% were active in any assay of this set; here they are far more common.
uPA surface inh = cell surface uPA generation inhibition. cell surface uPA generation assay, qHTS. Potency, µM (doses to about 38.3 µM), without a hit: at the highest dose activity change, negative = inhibition, hits mostly inhibitors. 330,000 tested, 0.31% active. AID 540303; active = well fitted inhibition curve with a large enough effect; inconclusive = small, poorly fitted or top-dose-only effect; inactive = no such curve, though single readings can be large or run the other way; tested in mouse RAW 264.7 cells; also: potency is read from the fitted curve at half-maximal effect; % is scaled to controls: 0 for no effect and ±100 for the full control effect; nearly all actives have a fitted effect of over 55% in size
miR-21 FLuc = miR-21 reporter, rising signal | HeLa miR-21 FLuc reporter, luciferase, 48 h | Potency, µM (top dose mostly 38.3 µM), inactives show at the top dose reporter change, positive = more light | 340,000 tested, under 10 active | AID 2288; active = well fitted rising curve with a large enough effect; inconclusive = small, poorly fitted or top-dose-only effect; inactive = no such curve, though single readings can be large or run the other way;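 further: % of control where 0% means no effect; miR-21 action dims this reporter so a rising signal means less miR-21 action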
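HeLa cells stably expressing CMV-driven firefly luciferase with a downstream miR-21 binding sequence, endogenously expressing miR-21, were treated with titrations (up to about 40uM final) for 48 hours at 37 degree Celsius. Luciferase luminescence was read after lysis.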
TDP1 inh = blocks human tyrosyl-DNA phosphodiesterase 1 | recombinant TDP1, AlphaScreen DNA substrate cleavage | Potency, µM (highest dose often 130 µM), for inactives: top-dose activity change, negative = inhibition, usual class: inhibitors | 350,000 tested, 0.28% active; also: potency is read from the fitted curve at half-maximal effect; % is scaled to controls: 0 for no effect and ±100 for the full control effect; nearly all actives have a fitted effect of over 40% in size
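Recombinant human Tdp1 (E. coli-expressed, 1 nM final) preincubated with compounds 15 min at room temperature, then 5'-biotin/3'-phosphotyrosine-FITC DNA substrate (15 nM final) added for 5 min. AlphaScreen beads (10 ug/ml final) added 10 min; cleavage lowers signal.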
TDP1 cell noCPT = qHTS for Inhibitors of human tyrosyl-DNA phosphodiesterase 1 (TDP1): qHTS in cells in absence of CPT; DT40 Tdp1-/- hTDP1 cells, no CPT, ATP luminescence, 48 h; Potency, µM (top dose mostly 46.2 µM), without a hit: at the highest dose activity change, negative = growth inhibition, hits mostly inhibitors; 420,000 tested, 15% active; AID 686978, 2013; also: potency is read from the fitted curve at half-maximal effect; % is scaled to controls: 0 for no effect and ±100 for the full control effect; nearly all actives have a fitted effect of over 55% in size
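Seeded 400 DT40-hTDP1 cells/well (vehicle DMSO, no 20 nM CPT); pinned compounds; ≥48 hr at 37 °C; CellTiter-Glo luminescence as viability measure.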
DT40 TDP1 CPT = DT40-hTDP1 cell growth loss with CPT. AID 686979. 420,000 tested, 12% active. chicken DT40 Tdp1-/-;hTDP1 cells + 20 nM CPT, ATP luminescence, 48 h. Potency, µM (series often up to 46.2 µM), without a hit: at the top dose activity change, negative = growth inhibition, most hits filed as inhibitors; also: potency is read from the fitted curve at half-maximal effect; % is scaled to controls: 0 for no effect and ±100 for the full control effect; nearly all actives have a fitted effect of over 55% in size
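Cell growth measured by CellTiter-Glo luminescence after a minimum 48 h, 37 C compound exposure with 20 nM CPT in Tdp1-knockout DT40 cells stably expressing hTDP1, seeded 400/well; qHTS titration format.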
The depositor's hits bear a star; ? = inconclusive; / = no result given; [ ] = remark or other dose. Unless noted, calls follow the shape of the dose curve; as a rule, active = well fitted curve in the direction sought with a large enough effect; inconclusive = small, poorly fitted or top-dose-only effect, or another doubt; inactive = no such curve, though single readings can be large; an effect the other way counts as inactive or inconclusive.

Below each SMILES: uPA surface inh | miR-21 FLuc | TDP1 inh | TDP1 cell noCPT | DT40 TDP1 CPT
O=C(O)c1ccc(CN2C(=O)c3cccc4c([N+](=O)[O-])ccc(c34)C2=O)cc1
    -3% | 0% | / | 16µM* | 15µM*
CC(=O)Oc1cccc(N2C(=O)c3ccc(C(=O)O)cc3C2=O)c1
    2% | -2% | -4% | -10% | -25%
Cc1ccc(C(=O)O)cc1N1C(=O)c2cccc3c([N+](=O)[O-])ccc(c23)C1=O
    ? | ? | / | 6.5µM* | 6.5µM*
O=C(Nc1nccs1)c1cccc(N2C(=O)c3cccc4c([N+](=O)[O-])ccc(c34)C2=O)c1
    -10% | 1% | 4% | 3.7µM* | 5.2µM*
O=C(Nc1ccc(S(=O)(=O)Nc2nccs2)cc1)c1cccc(N2C(=O)c3ccccc3C2=O)c1
    19% | 0% | 5% | -9% | 3%
CC(=O)Oc1cccc(N2C(=O)c3cccc4c([N+](=O)[O-])ccc(c34)C2=O)c1
    ? | 1% | / | 2.9µM* | 2.3µM*
COc1cccc(NC(=O)NNC(=O)CCc2ccc(O)c(O)c2)c1
    1% | 2% | 0% | 8% | -22%
CC1(C)CCC(=O)C=C1Nc1ccc(F)c(Cl)c1
    ? | -1% | / | ? | -5%
COc1cc(OC)c(OC)cc1CN(C)CCc1ccccn1
    -3% | -3% | / | -15% | -10%
Cc1cccc(-c2oc3ccc(-c4ccc5c(c4)OCO5)cc3c2C(=O)OCc2ccc(O)cc2)c1
    8% | -2% | / | ? | 16µM*
CC(C)NC(=O)c1ccccc1NC(=O)CS(=O)(=O)Cc1ccccc1
    / | 4% | 3% | 3% | ?
O=C(c1sc2ccccc2c1Cl)N(Cc1ccccc1)C1CCS(=O)(=O)C1 (centres undefined)
    4% | -14% | 2% | ? | -30%
O=C(c1sc2ccccc2c1Cl)N(Cc1ccco1)C1CCS(=O)(=O)C1 (centres undefined)
    / | -8% | 6% | 26µM* | ?
Cc1cccc(C)c1NC(=O)CNC(=O)C(NC(=O)c1ccc(C(C)(C)C)cc1)C(C)C (centres undefined)
    -10% | -10% | 5% | 21µM* | ?
CC(C)C(NC(=O)c1ccc(C(C)(C)C)cc1)C(=O)NCCc1ccccn1 (centres undefined)
    0% | 0% | 9% | 21µM* | ?

Below each SMILES: uPA surface inh | miR-21 FLuc | TDP1 inh | TDP1 cell noCPT | DT40 TDP1 CPT
Cc1cccc(C)c1NC(=O)CNC(=O)c1ccccc1
    2% | -4% | 7%[0.0935 µM] | 0% | 12%
CC(C)[C@H](NC(=O)c1ccccc1)C(=O)NCCc1ccccc1
    -1% | -2% | 0% | ? | -18%
CC(C)C(NC(=O)c1ccc(C(C)(C)C)cc1)C(=O)NCC(c1ccccc1)N(C)C (centres undefined)
    2% | -13% | 5% | 21µM* | ?
Cc1ccc([C@H]2C(C(=O)O)=CC[C@@H](c3ccc(C)cc3)N2S(=O)(=O)c2ccc(C)cc2)cc1
    1% | / | 3% | -10% | -4%
Cc1ccc(NC(=O)C(c2ccccc2)N2Cc3ccccc3C2=O)cc1Cl (centres undefined)
    / | -5% | 5% | -14% | ?
Cc1ccc(C(=O)C(c2ccccc2)N2Cc3ccccc3C2=N)cc1 (centres undefined)
    -16% | 15% | 4% | 8.2µM* | 10µM*
COc1ccccc1N1CCN(C(=S)Nc2cccc(C)c2)CC1
    -9% | 7% | 4% | 23µM* | 23µM*
Cc1ccccc1NC(=S)N1CCN(c2ccccc2Cl)CC1
    1% | 4% | / | 12µM* | 15µM*
COc1ccccc1NC(=S)N1CCN(c2cccc(C)c2C)CC1
    -27% | 8% | 4% | 2.3µM* | 5.2µM*
CCN1CCN(C(=S)Nc2ccccc2Cl)CC1
    0% | 1% | 2% | ? | 11µM*
CN1CCN(C(=S)Nc2ccccc2Cl)CC1
    -5% | 1% | 1% | ? | -26%
CN(C)c1nc2c(cnn2C)c(=O)[nH]1
    1% | / | / | -5% | -1%
COCCn1cnc2c1c(=O)n(Cc1ccc(C#N)cc1)c(=O)n2Cc1ccccc1
    0% | 1% | -3% | -17% | -12%
COc1ccc(NC(=O)c2c(C)nn(Cc3ccccc3)c2C)cc1S(=O)(=O)N(C)C
    1% | 4% | / | -19% | 1%
Cc1c(Cl)cccc1NC(=S)N1CCCCCC1
    -2% | 0% | -5%[56.1 µM] | 18µM* | ?

Two consecutive entries from above, for reference:
Below each SMILES: uPA surface inh | miR-21 FLuc | TDP1 inh | TDP1 cell noCPT | DT40 TDP1 CPT
COc1ccc(NC(=O)c2c(C)nn(Cc3ccccc3)c2C)cc1S(=O)(=O)N(C)C
    1% | 4% | / | -19% | 1%
Cc1c(Cl)cccc1NC(=S)N1CCCCCC1
    -2% | 0% | -5%[56.1 µM] | 18µM* | ?

4 entries from above, as tab-separated lines.
SMILES	uPA surface inh	miR-21 FLuc	TDP1 inh	TDP1 cell noCPT	DT40 TDP1 CPT
Cc1cccc(C)c1NC(=O)CNC(=O)c1ccccc1	2%	-4%	7%[0.0935 µM]	0%	12%
CC(C)[C@H](NC(=O)c1ccccc1)C(=O)NCCc1ccccc1	-1%	-2%	0%	?	-18%
CC(C)C(NC(=O)c1ccc(C(C)(C)C)cc1)C(=O)NCC(c1ccccc1)N(C)C (centres undefined)	2%	-13%	5%	21µM*	?
Cc1ccc([C@H]2C(C(=O)O)=CC[C@@H](c3ccc(C)cc3)N2S(=O)(=O)c2ccc(C)cc2)cc1	1%	/	3%	-10%	-4%

The listing continues.
Below each SMILES: uPA surface inh | miR-21 FLuc | TDP1 inh | TDP1 cell noCPT | DT40 TDP1 CPT
Cc1cccc(NC(=S)N2CCCCCC2)c1C
    2% | 0% | 1% | ? | ?
CC1CCCCN1CCCNC(=O)c1ccc(N2CCCC2=O)cc1 (centres undefined)
    -1% | -4% | / | 1% | 11%
Cc1ccc2c(c1)c1c(n2CC(O)CNC2CCCCC2)CCCC1 (centres undefined)
    ? | ? | 7% | 15µM* | 23µM*
Cc1ccc2c(c1)c1c(n2CC(O)CN2CCC(C)CC2)CCCC1 (centres undefined)
    7% | -10% | -7% | 26µM* | ?
CN(C)c1ccc(C(=O)NCc2ccc3c(c2)CCN3C(=O)c2ccc(Cl)cc2)cc1
    / | 1% | 2% | -13% | -1%
Clc1ccc(CN2CCN(c3ncccn3)CC2)cc1Cl
    2% | 5% | / | ? | -25%
O=c1[nH]c(=O)n(Cc2ccccc2)c2c1CCC2
    -8% | -5% | -1% | ? | -15%
N=c1c2c(n(Cc3ccc(Cl)c(Cl)c3)c3c1CCC3)CCCC2
    -19% | ? | 1% | 2.6µM* | 2.9µM*
CCCn1c2c(c(=N)c3c1CCC3)CCCC2
    -10% | ? | 3% | 5.2µM* | 9.2µM*
CCCCCCCn1c2c(c(=N)c3ccccc31)CCC2
    -100% | ? | 8% | 0.58µM* | 0.52µM*
O=C(CCn1c2c(c3ccccc31)CCCC2)NNC(=O)c1ccccc1C(=O)O
    -21% | 18% | 11% | 1% | -3%
CCOC(=O)Cn1c2c(c(=N)c3c1CCC3)CCCC2
    -2% | 14% | 1% | 2% | 7%
N=c1c2c(n(Cc3ccc(Br)cc3)c3c1CCC3)CCCC2
    4µM* | ? | 1% | 0.52µM* | 0.92µM*
N#Cc1cc(Cl)c(NCC2CCCO2)cc1C#N (centres undefined)
    -4% | -16% | 1% | -22% | -14%
CCC(=O)n1nc(-c2ccc(Cl)cc2)nc1N
    -18% | -19% | 0% | 2.6µM* | -11%
CCCC(=O)n1nc(-c2ccc(OC)cc2)nc1N
    -7% | -6% | 4% | -13% | -23%
COc1cc(C(=O)Nc2c(-c3ccccn3)c(=O)c3ccccc3n2C)cc(OC)c1OC
    / | -2% | 2% | / | /
COc1ccc(NC(=O)Cn2c(=O)n(-c3ccc(OC)c(OC)c3)c(=O)c3ccccc32)cc1
    / | -6% | -5% | 21% | -1%
